## scFv variants of Ab-14 (light chain) against a SARS-CoV-2 spike peptide

Antigen: PDVDLGDISGINAS, a 14-residue peptide of the SARS-CoV-2 spike HR2 region.

The variants keep the heavy chain, the linker and the frameworks of Ab-14 (scFv order VH, a (GGGGS)3 linker, VL).
VH: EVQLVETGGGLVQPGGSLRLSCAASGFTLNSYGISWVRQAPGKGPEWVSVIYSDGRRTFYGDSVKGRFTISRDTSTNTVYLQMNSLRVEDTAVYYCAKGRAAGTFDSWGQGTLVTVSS
VL: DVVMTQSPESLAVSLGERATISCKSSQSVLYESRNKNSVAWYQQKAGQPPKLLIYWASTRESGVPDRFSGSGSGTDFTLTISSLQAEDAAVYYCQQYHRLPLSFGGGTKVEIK

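The parent was found by panning a naive human phage display library on the peptide. These sequences belong to a second round, designed from the earlier measurements on random variants of the parent. Several design methods are mixed in this list. In AlphaSeq, yeast of one mating type display the scFv and yeast of the other type display the target. Binding brings cells together so that they mate, and sequencing counts the barcode pairs among the diploids. The ratio of observed to expected reads was calibrated, replicate by replicate, on BCL2-family standards whose Kd was known from biolayer interferometry. There are six technical replicates.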

Variants are written as CDR1, CDR2 and CDR3 of the light chain (limits as in the source). Parent: KSSQSVLYESRNKNSVA, WASTRES, QQYHRLPLS.
Affinities are written as log10 Kd with Kd in nM; a lower number is a better binder.
"ND" marks a missing value. The strain was present, yet no cells mated with the target were sequenced in that replicate, which points to weak or no binding.
The parent sequence was in this pool as ten entries: three were never detected, three once, and four in most replicates, with averages from 0.34 to 2.37.

| CDR-L1 | CDR-L2 | CDR-L3 | log10 Kd (nM) by replicate | empty controls |
|---|---|---|---|---|
| KMSQSVKMESRNKNSVA | DASTRES | QQYHRLPLS | 0.05 0.03 -0.05 -0.08 -0.01 0.03 | 1/18 (3.19) |
| KSSGSYHYESRNKNSVA | GASTRES | QQYHRLPLS | 0.15 0.15 -0.05 -0.14 0.05 0.27 | 1/18 (2.97) |
| KYPQGVLYESRNKNSVA | GASVRES | QQYHRLPLS | -0.27 -0.50 -0.60 -0.55 -0.55 -0.57 | 2/18 (2.83) |
| KSSISNLYESRNTNSVA | EASTRES | QQYHRLPLS | 0.16 0.25 0.24 0.10 0.23 0.42 | 0/18 |
| KLSQSELYESRNKNSVA | EASTREQ | QQYHRLPLS | 0.21 0.20 0.03 0.15 0.10 0.38 | 2/18 (2.59) |
| KVSWSVELQSRNKGQVA | SASTREL | QQYHRLPLS | 0.64 0.39 0.16 0.30 0.36 0.43 | 1/18 (3.11) |
| KQSQSVLYESRNKNSVA | DASTRES | QMYHRLPLS | 0.38 -0.13 0.09 -0.04 0.10 0.30 | 2/18 (2.41) |
| KQSQSDLYESRNKNSVA | GASTRES | QQYHRLPLS | 0.05 -0.10 0.00 -0.19 -0.15 0.21 | 0/18 |
| KVSQSVLYESRNKNSVA | NASQREQ | QQYHRLPLS | -0.23 -0.12 -0.15 -0.52 -0.15 -0.07 | 1/18 (3.08) |
| KQSQSVLYESRDKNSVA | DASTRSS | QQYHRLPLS | -0.08 0.60 0.09 -0.13 0.12 0.07 | 0/18 |
| KSSQSWLYESRNFWSVA | SASTRES | QQYHRLPLS | 1.74 1.24 1.17 0.86 1.42 1.06 | 0/18 |
| KSSFSVLQEMRNKNFVA | WASVRES | QQYHRLPLS | ND ND ND ND ND ND | 0/18 |
| NLGFVDDNDNQMMMSVA | DANTVGE | QQYNRLPLA | 1.92 1.48 1.10 1.57 1.88 1.52 | 0/18 |
| KSSISYLHESRNKNSVA | EASTRES | QQYHRLPLS | -0.04 -0.07 -0.17 -0.23 -0.04 -0.02 | 0/18 |
| IVSQLMLWGWHAKNSIA | EAQMRLN | QQYDRLPLF | ND 0.23 0.59 2.52 0.53 0.68 | 0/18 |
| QLNHYKHENMAKWQNIA | DMTIREK | QQYAHLPLA | 0.17 -0.01 0.00 -0.19 -0.19 -0.05 | 0/18 |
| TISQMTSWMSNKKDNVA | EVSLREE | QQYDRLPLS | 0.58 1.13 0.95 1.02 1.44 1.27 | 2/18 (2.68) |
| KLSQMELYESRNKNSVA | NASTRES | QQYHRLPLS | -0.04 -0.16 -0.19 -0.36 -0.27 -0.08 | 2/18 (4.15) |
| KVSQSVLYESRDKNSVA | NASTRES | QQMHRLPLS | ND 2.75 4.10 ND ND ND | 0/18 |
| KSGQGVLYESRNKNSVA | GASTRES | QQYHRLPLY | 0.69 0.57 0.40 0.59 0.63 1.15 | 1/18 (2.51) |
| KSSQSVLIESRNENSVA | WASTRES | QQYHRLPLS | 1.91 1.81 ND 2.08 2.42 ND | 0/18 |

Continued, with the values leading:

| log10 Kd (nM) by replicate | empty controls | CDR-L1 | CDR-L2 | CDR-L3 |
|---|---|---|---|---|
| 0.52 0.31 0.52 0.31 0.20 0.54 | 0/18 | KLQSLEQYESRWKNSVA | SASTRES | QQYHRLPLS |
| ND ND 2.36 1.95 ND ND | 0/18 | KSSQSVSYESLNKNSVA | WASTRES | QQYHRIPLS |
| ND ND ND ND ND ND | 0/18 | KSSQAVLYESRNKNSVW | WASIRES | QQYHRLPLS |
| -0.02 0.01 -0.07 0.06 0.03 0.08 | 1/18 (3.55) | KLPQQWLYESRNKNSVA | NASTRES | QQYHRLPLS |
| 1.98 1.22 ND 1.13 0.68 ND | 0/18 | KISMMYRFESTANNSIA | EMTTRAE | QSYHRLPLS |
| 0.47 0.22 0.42 0.31 0.23 0.26 | 1/18 (2.51) | KLMQSPWYESRWKNSVA | NASQREE | QQYHRLPLS |
| 1.57 1.40 0.80 0.91 0.89 2.15 | 0/18 | KMSQSVLYESRNKNSVA | WASTRES | QQYFRLPLN |
| -0.27 -0.29 -0.43 -0.63 -0.51 -0.41 | 1/18 (3.43) | KLSQSHLYESRNKNNVA | QASTRES | QQYHRLPLS |
| 0.85 1.01 0.72 0.57 0.59 0.90 | 1/18 (3.03) | KLRQVTGYEMYNKDSVA | QTSTRVN | QDYHRLPLS |
| -0.34 -0.33 -0.33 -0.86 -0.68 -0.52 | 0/18 | KSSQSWLYESRNKNSVA | GASDRES | QQYHRLPLS |
| 0.52 0.29 0.51 0.49 0.25 0.53 | 1/18 (2.82) | KLYDMAAVTMNNIRNVA | DNSTREQ | QQYHRLPLS |
| -0.12 -0.11 -0.41 -0.05 -0.02 0.06 | 0/18 | MISDLTMYGSRNVNSVA | DLSTRGI | QQYHRLPLS |
| 1.77 0.79 0.76 0.75 1.26 1.18 | 1/18 (2.02) | SLMQVGGYESNTHNSIA | DLRTRES | QQYHRLPLS |
| 0.03 0.01 -0.35 -0.52 -0.29 -0.10 | 2/18 (3.24) | KFMQSMGYESRNKNSVA | DASTRRS | QQYHRLPLS |
| 1.69 1.19 0.87 1.16 1.73 1.41 | 1/18 (2.61) | KSSYSVLYESHNKNSVA | NASTRMS | QQYHRLPLS |
| 1.43 0.88 0.95 0.65 1.42 1.41 | 1/18 (2.49) | HITYGMYVAGRHSSSIA | QAETRAK | QQYDRLPLI |
| 0.20 0.28 -0.15 0.26 0.05 0.35 | 1/18 (2.50) | SIGGHMKSSMAHRNSVA | DMTNREE | QQYDRLPLS |
| -0.24 -0.52 -0.48 -0.61 -0.68 -0.26 | 0/18 | KLSQSWLYESRNKNNVA | NASTRMS | QQYHRLPLS |
| 1.25 1.41 1.36 0.70 1.46 1.62 | 0/18 | KWSQSVPMGDRNKNSVA | SAHKRES | QQYHRLPLS |
| 0.95 0.91 1.13 1.19 0.89 1.05 | 1/18 (3.11) | MITEIFDNKGDQRSNVA | NGETLFH | QQYDRLPFL |
| ND ND ND ND ND ND | 0/18 | KSSQSVLAESRNKNSVA | WASTRES | QQYHRLPLS |
| 0.84 0.40 0.31 0.24 0.36 0.49 | 2/18 (1.94) | QIAIHGMDENQMYNHIA | NENIRET | QQYWHLPLS |

Excerpt, the final 2 entries:

CDR-L1	CDR-L2	CDR-L3	log10 Kd (nM) by replicate	empty controls
KSSQSVLAESRNKNSVA	WASTRES	QQYHRLPLS	ND ND ND ND ND ND	0/18
QIAIHGMDENQMYNHIA	NENIRET	QQYWHLPLS	0.84 0.40 0.31 0.24 0.36 0.49	2/18 (1.94)

Background: pairings of all light chain designs with three empty control strains gave a value in 4% of cases (median 2.64, 5th percentile 1.59). Values in that range, when seen in few replicates, are hard to tell from nonspecific mating. The control count says in how many pairings with the empty strains this scFv gave a signal, with their mean in brackets.
The authors' rule: three or more of the six replicates give a measured affinity, fewer mean a poor binder.
Values of this round are not directly comparable with the first-round values of the same sequences.

The measurements come from Li et al. 2023 (doi:10.1038/s41467-023-39022-2) through the FLAb antibody collection.